Active and inactive are the calls of the source. The rule behind the calls is not given here.
Biological target: Nuclear receptor coactivator 1 (Homo sapiens) (UniProt Q15788)
Assay: inhibition of NCOA1 transcriptional coactivation in cells – cell-based, luciferase reporter, luminescence, dose response (AID 602235);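 note: cells transfected with pGL4.31 reporter plus pBIND-SRC1 vector; potency is for inhibitors that lower SRC1 reporter luminescence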
Conditions: cell-based SRC1 luciferase reporter

Amino acid sequences for entries named in this document (tags omitted). A change or cut given only in a name is not applied to a line headed by its entry.
UniProt Q15788: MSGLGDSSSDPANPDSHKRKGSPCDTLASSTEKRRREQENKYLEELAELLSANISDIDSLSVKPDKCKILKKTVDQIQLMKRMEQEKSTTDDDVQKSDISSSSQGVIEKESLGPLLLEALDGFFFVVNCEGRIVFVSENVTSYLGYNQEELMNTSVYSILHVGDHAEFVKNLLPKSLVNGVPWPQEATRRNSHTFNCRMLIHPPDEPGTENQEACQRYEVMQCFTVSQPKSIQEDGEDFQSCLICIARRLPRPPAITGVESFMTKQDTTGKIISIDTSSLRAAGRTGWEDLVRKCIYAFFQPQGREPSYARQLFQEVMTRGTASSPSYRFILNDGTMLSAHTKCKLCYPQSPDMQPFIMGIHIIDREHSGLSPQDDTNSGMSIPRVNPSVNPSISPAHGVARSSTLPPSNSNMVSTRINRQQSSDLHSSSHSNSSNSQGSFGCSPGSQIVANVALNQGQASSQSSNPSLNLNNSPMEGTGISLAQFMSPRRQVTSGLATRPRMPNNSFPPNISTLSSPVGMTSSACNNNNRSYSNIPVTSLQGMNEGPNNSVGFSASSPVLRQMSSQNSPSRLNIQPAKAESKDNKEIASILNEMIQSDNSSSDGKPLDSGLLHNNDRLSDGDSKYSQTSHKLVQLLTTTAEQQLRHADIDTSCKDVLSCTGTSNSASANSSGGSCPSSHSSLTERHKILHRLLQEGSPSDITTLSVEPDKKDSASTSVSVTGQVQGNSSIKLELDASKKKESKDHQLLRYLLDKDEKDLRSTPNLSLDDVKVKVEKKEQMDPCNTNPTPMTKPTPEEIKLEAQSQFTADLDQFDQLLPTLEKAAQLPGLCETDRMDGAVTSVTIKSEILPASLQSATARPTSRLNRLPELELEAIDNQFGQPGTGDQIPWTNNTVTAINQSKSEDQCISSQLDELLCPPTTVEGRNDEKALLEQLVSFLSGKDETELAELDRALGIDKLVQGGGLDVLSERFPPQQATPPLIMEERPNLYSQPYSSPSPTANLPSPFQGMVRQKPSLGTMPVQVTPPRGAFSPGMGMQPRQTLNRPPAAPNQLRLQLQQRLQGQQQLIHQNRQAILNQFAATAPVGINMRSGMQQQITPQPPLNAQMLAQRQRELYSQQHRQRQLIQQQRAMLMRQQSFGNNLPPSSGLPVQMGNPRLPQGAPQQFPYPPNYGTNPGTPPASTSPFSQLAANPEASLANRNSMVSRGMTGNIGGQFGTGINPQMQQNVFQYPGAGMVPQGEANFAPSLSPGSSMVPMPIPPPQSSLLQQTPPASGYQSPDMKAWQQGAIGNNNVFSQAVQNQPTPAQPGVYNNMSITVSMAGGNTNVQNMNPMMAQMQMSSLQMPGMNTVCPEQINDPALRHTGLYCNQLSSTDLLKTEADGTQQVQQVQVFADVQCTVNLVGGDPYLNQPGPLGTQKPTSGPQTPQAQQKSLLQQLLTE

SMILES | IC50
COc1cc([C@@H]2c3cc4c(cc3[C@@H](O[C@@H]3O[C@@H]5CO[C@@H](C)O[C@H]5[C@H](O)[C@H]3O)[C@H]3COC(=O)[C@H]23)OCO4)cc(OC)c1O | 1150 nM
O=C(N/N=C/c1cc(Br)ccc1O)C(c1ccncc1)N1CCOCC1 (configuration not stated) | inactive: > 12000 nM

Source: PubChem BioAssay AID602235 (The Scripps Research Institute Molecular Screening Center, 2012)
